3 compounds from ChEMBL document CHEMBL4130599, “VU6010608, a Novel mGlu7 NAM from a Series of N-(2-(1H-1,2,4-Triazol-1-yl)-5-(trifluoromethoxy)phenyl)benzamides” (ACS Med Chem Lett, 2017) can be followed below.

Protein sequences, listed by entry. Tags and fused reporters are not part of them.
UniProt P35400, whole entry: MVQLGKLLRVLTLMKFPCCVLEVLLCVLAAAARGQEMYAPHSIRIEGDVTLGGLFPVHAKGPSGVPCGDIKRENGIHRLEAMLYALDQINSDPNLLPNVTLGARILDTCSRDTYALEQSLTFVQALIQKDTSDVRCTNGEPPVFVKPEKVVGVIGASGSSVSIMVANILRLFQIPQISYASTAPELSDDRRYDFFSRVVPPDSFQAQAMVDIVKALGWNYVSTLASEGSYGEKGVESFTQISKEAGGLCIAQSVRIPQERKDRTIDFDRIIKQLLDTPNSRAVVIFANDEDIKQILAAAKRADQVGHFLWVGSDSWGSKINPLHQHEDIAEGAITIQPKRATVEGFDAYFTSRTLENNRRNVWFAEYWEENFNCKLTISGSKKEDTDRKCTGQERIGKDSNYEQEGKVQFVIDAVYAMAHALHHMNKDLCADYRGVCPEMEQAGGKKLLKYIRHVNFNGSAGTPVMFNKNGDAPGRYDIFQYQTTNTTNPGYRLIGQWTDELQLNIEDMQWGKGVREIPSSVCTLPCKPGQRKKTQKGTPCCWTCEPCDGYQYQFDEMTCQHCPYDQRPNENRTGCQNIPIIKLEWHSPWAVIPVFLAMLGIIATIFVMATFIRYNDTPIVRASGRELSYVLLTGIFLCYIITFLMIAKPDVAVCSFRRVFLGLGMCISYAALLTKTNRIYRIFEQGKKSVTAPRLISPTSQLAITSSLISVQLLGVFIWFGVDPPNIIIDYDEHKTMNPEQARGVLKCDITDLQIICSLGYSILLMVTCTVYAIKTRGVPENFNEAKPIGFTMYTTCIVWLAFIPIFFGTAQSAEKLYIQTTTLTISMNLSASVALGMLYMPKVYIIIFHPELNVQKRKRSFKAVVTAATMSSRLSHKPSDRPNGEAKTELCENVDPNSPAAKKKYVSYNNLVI

Molecules are shown by their SMILES.

The experiment addresses Metabotropic glutamate receptor 7 (Rattus norvegicus, UniProt P35400). The experiment in a line: Negative allosteric modulation of rat mGlu7 expressed in HEK cells co-expressing Galpha15 assessed as reduction in L-AP4-induced intracellular calcium flux pretreated for 142 secs followed by glutamate addition and subsequent stimulation of L-AP4 for 40 secs by Fluo-4 AM dye based fluorescence assay. It is filed as functional, cell-based. For orientation: Calcium assays in cells follow changes in intracellular calcium, usually with a dye or a luminescent sensor.
For `CCCOc1ccc(C(=O)Nc2cc(OC(F)(F)F)ccc2-n2cncn2)cc1OC`, the IC50 amounted to 780 nM.

For `CCOc1ccc(C(=O)Nc2cc(OC(F)(F)F)ccc2-n2cncn2)cc1OC`, the IC50 stood at 510 nM.

Turning to `COc1cc(C(=O)Nc2cc(OC(F)(F)F)ccc2-n2cncn2)ccc1OC(C)C`, the IC50 is 780 nM.

As a reminder, the IC50 is the midpoint of a concentration-inhibition curve.
